# Source: patent publication US20060079453A1, “Hla binding peptides and their uses” (priority 2002, published 2006)
# Sequences of proteins named here, by UniProt entry; tags and fusion partners are left off. A change or cut given only in a name is not applied to a line headed by its entry.
# UniProt P01889: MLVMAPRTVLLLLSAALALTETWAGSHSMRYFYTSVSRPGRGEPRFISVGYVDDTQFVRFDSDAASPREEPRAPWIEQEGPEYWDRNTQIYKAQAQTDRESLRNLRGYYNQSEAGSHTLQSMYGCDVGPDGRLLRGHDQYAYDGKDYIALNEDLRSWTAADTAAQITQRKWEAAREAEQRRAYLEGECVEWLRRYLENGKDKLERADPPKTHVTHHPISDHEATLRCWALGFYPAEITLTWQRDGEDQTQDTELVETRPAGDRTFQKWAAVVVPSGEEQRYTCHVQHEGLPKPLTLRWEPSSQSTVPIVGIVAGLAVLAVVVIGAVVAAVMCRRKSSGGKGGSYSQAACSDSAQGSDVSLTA
# Biological target: HLA-B*4001 (Homo sapiens, UniProt P01889, A65T/A93T/A95T/D138N/D98Y/E176V/E69K/N87E/Q56L/Q94N/R180L/S121R/S35A/S48T/T167S/V36M/W171L/Y33H/Y91S)
# Test: biochemical
# Format: binding
# Settings: not given
row,Compound,IC50 [nM]
1,CC(C)C[C@H](NC(=O)[C@H](CC(N)=O)NC(=O)[C@H](CCC(=O)O)NC(=O)[C@H](C)N)C(=O)N[C@@H](Cc1c[nH]c2ccccc12)C(=O)N[C@H](C(=O)N[C@H](C(=O)N[C@H](C(=O)N[C@@H](CS)C(=O)O)C(C)C)[C@@H](C)O)C(C)C,157

# Same assay, conditions: B*4001
row,Compound,IC50 [nM]
1,CC(C)C[C@H](NC(=O)[C@H](CC(C)C)NC(=O)[C@@H](NC(=O)[C@H](CCC(=O)O)NC(=O)[C@H](CCCCN)NC(=O)CNC(=O)[C@H](CCC(=O)O)NC(=O)[C@H](C)N)C(C)C)C(=O)N[C@@H](CC(C)C)C(=O)N[C@H](C(=O)O)C(C)C,1020
2,CC(C)C[C@H](NC(=O)[C@H](CC(N)=O)NC(=O)[C@H](Cc1c[nH]cn1)NC(=O)[C@@H](NC(=O)[C@H](CC(C)C)NC(=O)[C@H](CC(C)C)NC(=O)[C@H](CC(C)C)NC(=O)[C@@H](NC(=O)[C@H](CCC(=O)O)NC(=O)[C@@H](N)CCCCN)C(C)C)C(C)C)C(=O)O,3.1

# Biological target: HLA-B*4402 (Homo sapiens, UniProt P01889, A223V/A65T/A93T/A95T/D201E/D98Y/E176V/E187L/E204Q/E69K/G107R/H137Y/K202T/L105A/L119I/N104T/N87E/Q56L/Q94N/R106L/R155S/R180D/S101N/S121R/S35A/S48T/T118I/V36M/W191S/Y140D/Y91S)
# Test: biochemical
# Format: binding
# Settings: not given
row,Compound,IC50 [nM]
1,CC[C@H](C)[C@H](NC(=O)[C@@H](NC(=O)[C@@H](NC(=O)[C@@H](NC(=O)[C@H](Cc1c[nH]c2ccccc12)NC(=O)[C@H](CC(C)C)NC(=O)[C@H](CC(N)=O)NC(=O)[C@H](CCC(=O)O)NC(=O)[C@H](C)N)C(C)C)[C@@H](C)O)C(C)C)C(=O)O,237
2,CC(C)C[C@H](NC(=O)[C@H](CC(N)=O)NC(=O)[C@H](CCC(=O)O)NC(=O)[C@H](C)N)C(=O)N[C@@H](Cc1c[nH]c2ccccc12)C(=O)N[C@H](C(=O)N[C@H](C(=O)N[C@H](C(=O)N[C@@H](CCCNC(=N)N)C(=O)O)C(C)C)[C@@H](C)O)C(C)C,4860
3,CC(C)[C@H](NC(=O)[C@H](CC(N)=O)NC(=O)[C@H](CCC(=O)O)NC(=O)[C@H](C)N)C(=O)N[C@@H](Cc1c[nH]c2ccccc12)C(=O)N[C@H](C(=O)N[C@H](C(=O)N[C@H](C(=O)N[C@@H](Cc1ccc(O)cc1)C(=O)O)C(C)C)[C@@H](C)O)C(C)C,1110
4,CC(C)C[C@H](NC(=O)[C@@H]1CCCN1C(=O)[C@H](CCC(=O)O)NC(=O)[C@H](C)N)C(=O)N[C@@H](Cc1c[nH]c2ccccc12)C(=O)N[C@H](C(=O)N[C@H](C(=O)N[C@H](C(=O)N[C@@H](Cc1ccc(O)cc1)C(=O)O)C(C)C)[C@@H](C)O)C(C)C,1320
5,CC[C@H](C)[C@H](NC(=O)[C@H](CCC(=O)O)NC(=O)CN)C(=O)N[C@@H](CO)C(=O)N1CCC[C@H]1C(=O)N[C@@H](Cc1ccc(O)cc1)C(=O)N1CCC[C@H]1C(=O)N[C@@H](CO)C(=O)N[C@@H](CC(C)C)C(=O)O,3560

# Same assay, conditions: B*4402
row,Compound,IC50 [nM]
1,CC(C)C[C@H](NC(=O)[C@H](CC(C)C)NC(=O)[C@H](CC(C)C)NC(=O)[C@H](Cc1ccccc1)NC(=O)[C@H](Cc1c[nH]cn1)NC(=O)[C@@H](NC(=O)[C@H](CC(C)C)NC(=O)[C@H](CCC(=O)O)NC(=O)[C@H](C)N)C(C)C)C(=O)O,33
2,CSCC[C@H](NC(=O)[C@H](CCC(=O)O)NC(=O)[C@H](C)N)C(=O)N[C@@H](CC(C)C)C(=O)NCC(=O)N[C@@H](CO)C(=O)N[C@H](C(=O)N[C@H](C(=O)NCC(=O)O)C(C)C)C(C)C,27
3,C[C@H](NC(=O)[C@H](CC(=O)O)NC(=O)[C@H](CCC(N)=O)NC(=O)[C@@H](NC(=O)[C@H](CCC(=O)O)NC(=O)[C@@H]1CCCN1C(=O)[C@H](CCC(=O)O)NC(=O)[C@@H](N)CS)[C@@H](C)O)C(=O)N[C@H](C(=O)O)[C@@H](C)O,23400
4,CC(C)[C@H](NC(=O)[C@@H]1CCCN1C(=O)[C@H](CC(N)=O)NC(=O)[C@H](CCC(N)=O)NC(=O)[C@@H](NC(=O)[C@H](CCC(=O)O)NC(=O)[C@@H](N)CS)[C@@H](C)O)C(=O)N[C@@H](CO)C(=O)N[C@@H](C)C(=O)O,20000
5,CC(C)C[C@H](NC(=O)[C@@H]1CCCN1C(=O)[C@H](CO)NC(=O)[C@H](CCCNC(=N)N)NC(=O)[C@@H]1CCCN1C(=O)[C@H](C)NC(=O)[C@H](CCC(=O)O)NC(=O)[C@@H](N)CCC(=O)O)C(=O)O,1590
6,CSCC[C@H](NC(=O)[C@H](CCCNC(=N)N)NC(=O)[C@@H]1CCCN1C(=O)CNC(=O)[C@H](CCC(=O)O)NC(=O)[C@@H](N)CCC(=O)O)C(=O)N[C@@H](Cc1ccccc1)C(=O)N1CCC[C@H]1C(=O)N[C@@H](CC(=O)O)C(=O)N[C@@H](CC(C)C)C(=O)O,95
7,CC[C@H](C)[C@H](NC(=O)[C@H](CCC(=O)O)NC(=O)[C@@H](N)CCC(=O)O)C(=O)N[C@H](C(=O)NCC(=O)N[C@@H](Cc1ccc(O)cc1)C(=O)N[C@@H](CC(C)C)C(=O)N[C@@H](Cc1ccc(O)cc1)C(=O)O)[C@@H](C)O,11
8,CC[C@H](C)[C@H](NC(=O)[C@H](Cc1ccc(O)cc1)NC(=O)[C@H](CC(C)C)NC(=O)[C@H](Cc1ccc(O)cc1)NC(=O)CNC(=O)[C@@H](NC(=O)[C@@H](NC(=O)[C@H](CCC(=O)O)NC(=O)[C@@H](N)CCC(=O)O)[C@@H](C)CC)[C@@H](C)O)C(=O)O,12
9,CC[C@H](C)[C@H](NC(=O)[C@H](CCCCN)NC(=O)[C@H](CCC(=O)O)NC(=O)[C@@H](N)CCC(=O)O)C(=O)N[C@@H](Cc1c[nH]c2ccccc12)C(=O)N[C@@H](CCC(=O)O)C(=O)N[C@@H](CCC(=O)O)C(=O)N[C@@H](CC(C)C)C(=O)O,99000
10,CC(C)C[C@H](NC(=O)[C@H](Cc1ccc(O)cc1)NC(=O)[C@H](CCC(=O)O)NC(=O)[C@@H](N)CCC(=O)O)C(=O)N[C@H](C(=O)N1CCC[C@H]1C(=O)N[C@@H](CCC(N)=O)C(=O)N[C@@H](CCC(N)=O)C(=O)NCC(=O)O)C(C)C,651
11,CC(C)[C@H](NC(=O)[C@H](CO)NC(=O)[C@H](CC(=O)O)NC(=O)[C@H](CCC(=O)O)NC(=O)[C@H](CCCNC(=N)N)NC(=O)CNC(=O)[C@H](CCC(=O)O)NC(=O)[C@@H](N)Cc1ccccc1)C(=O)N[C@@H](Cc1ccccc1)C(=O)O,221
12,CC(C)C[C@H](NC(=O)[C@H](C)NC(=O)[C@H](CCC(=O)O)NC(=O)CNC(=O)[C@H](CCCNC(=N)N)NC(=O)[C@H](C)NC(=O)[C@H](CCC(=O)O)NC(=O)[C@@H](N)CC(C)C)C(=O)NCC(=O)O,11000
13,CC(C)C[C@H](NC(=O)CNC(=O)[C@H](CC(C)C)NC(=O)[C@H](C)NC(=O)[C@H](CCC(=O)O)NC(=O)CNC(=O)[C@H](CCCNC(=N)N)NC(=O)[C@H](C)NC(=O)[C@H](CCC(=O)O)NC(=O)[C@@H](N)CC(C)C)C(=O)N[C@H](C(=O)O)C(C)C,> 17800
14,CSCC[C@H](NC(=O)[C@H](CC(=O)O)NC(=O)[C@H](CC(=O)O)NC(=O)[C@H](CC(=O)O)NC(=O)[C@H](CCC(=O)O)NC(=O)[C@@H](N)CC(C)C)C(=O)NCC(=O)N[C@@H](CC(=O)O)C(=O)N[C@@H](CC(C)C)C(=O)O,947
15,C[C@H](NC(=O)[C@H](CCC(=O)O)NC(=O)[C@@H]1CCCN1)C(=O)N[C@@H](CCC(N)=O)C(=O)N[C@@H](CC(N)=O)C(=O)N[C@H](C(=O)N[C@H](C(=O)N[C@@H](Cc1ccc(O)cc1)C(=O)O)[C@@H](C)O)[C@@H](C)O,2200
16,CC(C)[C@H](NC(=O)[C@H](CC(=O)O)NC(=O)[C@@H]1CCCN1C(=O)[C@H](CCC(N)=O)NC(=O)[C@H](CC(N)=O)NC(=O)[C@@H](NC(=O)[C@H](Cc1ccc(O)cc1)NC(=O)[C@H](CCC(=O)O)NC(=O)[C@@H]1CCCN1)C(C)C)C(=O)O,1110
17,CC[C@H](C)[C@H](NC(=O)[C@H](CC(N)=O)NC(=O)[C@@H]1CCCN1C(=O)[C@@H](NC(=O)[C@H](Cc1ccccc1)NC(=O)[C@H](CC(C)C)NC(=O)[C@H](CCC(=O)O)NC(=O)[C@@H](N)CCC(N)=O)[C@@H](C)CC)C(=O)O,752
18,CC[C@H](C)[C@H](NC(=O)[C@H](CC(N)=O)NC(=O)[C@@H]1CCCN1C(=O)[C@@H](NC(=O)[C@H](Cc1ccccc1)NC(=O)[C@H](CC(C)C)NC(=O)[C@H](CCC(=O)O)NC(=O)[C@@H](N)CCC(N)=O)[C@@H](C)CC)C(=O)N[C@H](C(=O)N[C@H](C(=O)O)C(C)C)[C@@H](C)O,93
19,CC(C)C[C@H](NC(=O)[C@H](CCC(=O)O)NC(=O)[C@H](CC(C)C)NC(=O)[C@H](C)NC(=O)[C@H](CCC(=O)O)NC(=O)[C@H](CC(N)=O)NC(=O)[C@H](CC(C)C)NC(=O)[C@H](CCC(=O)O)NC(=O)[C@@H](N)CCCNC(=N)N)C(=O)O,525
20,CC(C)C[C@H](NC(=O)[C@H](CO)NC(=O)[C@H](CCCNC(=N)N)NC(=O)[C@H](CC(C)C)NC(=O)[C@H](CCC(N)=O)NC(=O)[C@H](CC(C)C)NC(=O)[C@H](CCC(=O)O)NC(=O)[C@@H](N)CCCNC(=N)N)C(=O)O,2030
21,CC(C)[C@H](NC(=O)[C@H](CC(=O)O)NC(=O)[C@H](CO)NC(=O)CNC(=O)[C@H](C)NC(=O)CNC(=O)[C@H](CCC(=O)O)NC(=O)[C@@H](N)CO)C(=O)N[C@@H](Cc1ccccc1)C(=O)O,69
22,CC(C)C[C@H](NC(=O)[C@H](Cc1ccc(O)cc1)NC(=O)[C@H](CCC(=O)O)NC(=O)[C@@H](N)CO)C(=O)N[C@@H](CCC(N)=O)C(=O)N[C@@H](CC(C)C)C(=O)N[C@H](C(=O)N[C@@H](Cc1ccccc1)C(=O)NCC(=O)O)C(C)C,271
23,CC(C)C[C@H](NC(=O)[C@H](CCC(=O)O)NC(=O)[C@@H](N)[C@@H](C)O)C(=O)N[C@H](C(=O)N[C@@H](CCC(=O)O)C(=O)N1CCC[C@H]1C(=O)N[C@@H](CC(C)C)C(=O)N[C@H](C(=O)N1CCC[C@H]1C(=O)N[C@@H](CO)C(=O)NCC(=O)O)[C@@H](C)O)C(C)C,> 21100
24,CC(C)C[C@H](NC(=O)[C@H](CC(C)C)NC(=O)[C@H](CC(C)C)NC(=O)[C@H](Cc1ccccc1)NC(=O)[C@H](Cc1c[nH]cn1)NC(=O)[C@@H](NC(=O)[C@H](CC(C)C)NC(=O)[C@H](CCC(=O)O)NC(=O)[C@@H](N)C(C)C)C(C)C)C(=O)O,579
25,CC(C)C[C@H](NC(=O)[C@H](C)NC(=O)[C@H](CC(C)C)NC(=O)CNC(=O)[C@H](CO)NC(=O)CNC(=O)[C@H](CC(C)C)NC(=O)[C@H](CCC(=O)O)NC(=O)[C@@H](N)CCCNC(=N)N)C(=O)O [RELGSGLAL],457

# Same assay, conditions: read-out: B*4402
row,Compound,IC50 [nM]
1,REGPLPAARIPA,32900
